The results in this text go back to patent US11185100B2 (priority 2014, dated 2021).

The chains behind the UniProt entries cited, without tags or fusion partners. Residues count along the entry.
UniProt E3UMS2, 1-296: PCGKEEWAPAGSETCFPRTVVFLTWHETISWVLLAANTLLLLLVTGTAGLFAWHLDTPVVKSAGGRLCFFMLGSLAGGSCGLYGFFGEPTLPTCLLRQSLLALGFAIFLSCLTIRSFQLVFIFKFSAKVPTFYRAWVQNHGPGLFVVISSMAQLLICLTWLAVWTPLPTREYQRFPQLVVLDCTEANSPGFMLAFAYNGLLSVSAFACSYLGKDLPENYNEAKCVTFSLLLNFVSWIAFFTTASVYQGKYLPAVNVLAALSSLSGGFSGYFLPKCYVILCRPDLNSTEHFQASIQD

The experiment deals with cat T1R1/T1R3 receptor (Felis catus, UniProt E3UMS2).

For the compound `Nc1nc2c(ncn2[C@H]2C[C@H](OP(=O)(O)O)[C@@H](COP(=O)(O)O)O2)c(=O)[nH]1`, the result was active. The same measure for `O=c1ccn([C@H]2C[C@H](O)[C@@H](COP(O)(O)=S)O2)c(=O)[nH]1`: “active”.
